The record followed here is patent US5280015A, “2-substituted adenosines and 2-substituted adenosine 5'-carboxamides” (priority 1990, dated 1994).

Protein sequences, listed by entry. Tags and fused reporters are not part of them. Residues count along the entry.
UniProt P25099, whole entry: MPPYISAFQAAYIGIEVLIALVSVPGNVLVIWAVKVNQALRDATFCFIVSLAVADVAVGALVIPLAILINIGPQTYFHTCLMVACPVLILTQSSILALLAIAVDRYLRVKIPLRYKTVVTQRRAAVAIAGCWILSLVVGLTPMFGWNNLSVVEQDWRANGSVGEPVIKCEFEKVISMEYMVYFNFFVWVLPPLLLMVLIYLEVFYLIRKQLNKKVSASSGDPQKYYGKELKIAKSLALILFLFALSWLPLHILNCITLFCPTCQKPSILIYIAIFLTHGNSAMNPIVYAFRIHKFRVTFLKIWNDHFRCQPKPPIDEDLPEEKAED
UniProt E1BKU0, 1-401: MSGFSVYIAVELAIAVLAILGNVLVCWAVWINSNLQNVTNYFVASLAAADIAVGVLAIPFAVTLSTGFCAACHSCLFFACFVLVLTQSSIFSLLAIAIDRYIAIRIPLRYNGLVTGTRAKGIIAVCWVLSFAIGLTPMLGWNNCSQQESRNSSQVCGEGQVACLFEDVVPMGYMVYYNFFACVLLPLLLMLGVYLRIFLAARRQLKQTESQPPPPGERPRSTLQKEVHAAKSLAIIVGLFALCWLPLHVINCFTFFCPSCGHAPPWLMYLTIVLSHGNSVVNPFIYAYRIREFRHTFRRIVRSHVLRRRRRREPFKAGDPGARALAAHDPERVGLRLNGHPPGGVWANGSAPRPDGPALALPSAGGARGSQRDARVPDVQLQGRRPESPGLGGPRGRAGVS
UniProt P30543, whole entry: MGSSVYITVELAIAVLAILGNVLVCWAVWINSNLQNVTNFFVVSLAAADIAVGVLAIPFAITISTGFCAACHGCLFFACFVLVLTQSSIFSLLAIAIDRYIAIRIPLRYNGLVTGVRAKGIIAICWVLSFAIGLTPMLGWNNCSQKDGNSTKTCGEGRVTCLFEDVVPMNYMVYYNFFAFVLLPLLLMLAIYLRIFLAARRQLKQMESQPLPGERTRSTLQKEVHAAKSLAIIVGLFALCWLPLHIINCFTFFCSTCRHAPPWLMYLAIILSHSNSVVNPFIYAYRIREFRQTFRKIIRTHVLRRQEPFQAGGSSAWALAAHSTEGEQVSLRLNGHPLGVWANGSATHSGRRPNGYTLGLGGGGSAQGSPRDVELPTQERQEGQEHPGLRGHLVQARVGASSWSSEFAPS

One assay concerns the target T1, A1-adenosine receptors (Rattus norvegicus, UniProt P25099).
T1 construct: rat cerebral cortex membranes; from tissue; host or cells: rat cerebral cortex membranes
As to the kind of experiment: Competitive binding assay at A1-adenosine receptors, rat cerebral cortex membranes ([3H]PIA or [3H]CHA). The settings on record: [3H]N6-cyclohexyladenosine (footnote c), read-out: Ki, inhibition of binding at A1-receptors using [3H]N6-cyclohexyladenosine.

The test system of assay [1] is A2-adenosine receptors. Put plainly: Competitive binding assay in bovine brain using 125I-PAPA-APEC (striatal membranes). The conditions noted are these: ratio of Ki at A1-receptors (rat) versus Ki in the 125I-PAPA-APEC assay (bovine).
A further assay addresses A2 adenosine receptors (Bos taurus, UniProt E1BKU0). Described as above. Also noted: Bovine striatal membranes; from tissue; host or cells: bovine (calf) striatal membranes. The settings on record: Ki, inhibition of binding of 125I-PAPA-APEC at A2-receptors, bovine striatum; 11, 12 and 14: apparent Ki.
Assay [2] deals with A2-adenosine receptors (Rattus norvegicus, UniProt P30543). As to the kind of experiment: Inhibition of binding of [3H]CGS21680 to A2-adenosine receptors in rat striatal membranes. Also noted: rat striatal membranes; from tissue; host or cells: rat striatal membranes.

Consider `CCNC(=O)[C@H]1O[C@@H](n2cnc3c(N)nc(NCCc4ccc(CCC(=O)O)cc4)nc32)[C@H](O)[C@@H]1O` [Compound 1, reference compound], for which the Ki on A1-adenosine receptors amounted to 2600 ± 300 nM.
In the case of `CCNC(=O)[C@H]1O[C@@H](n2cnc3c(N)nc(NCCc4ccc(CCC(=O)NCCNC(=S)NC5CC(C)(C)N([O])C(C)(C)C5)cc4)nc32)[C@H](O)[C@@H]1O` [Compound 15], in the assay with A2-adenosine receptors [1], the “Ki (A1)/K1 (A2)” value was determined as 12.
For `CCNC(=O)[C@H]1O[C@@H](n2cnc3c(N)ncnc32)[C@H](O)[C@@H]1O` [NECA, 5'-N-ethylcarboxamidoadenosine, reference compound], on A2 adenosine receptors, the Ki turned out to be 55 ± 26 nM.
For the compound `C[C@H](Cc1ccccc1)Nc1ncnc2c1ncn2[C@@H]1O[C@H](CO)[C@@H](O)[C@H]1O` [R-PIA, N^6 -phenylisopropyladenosine, reference compound], the Ki on A2-adenosine receptors [2] was determined as 410 ± 32 nM; at A2 adenosine receptors, 870 ± 270 nM.
Turning to `C[C@@H](Cc1ccccc1)Nc1ncnc2c1ncn2[C@@H]1O[C@H](CO)[C@@H](O)[C@H]1O` [S-PIA, N^6 -phenylisopropyladenosine, reference compound], at A2 adenosine receptors, the Ki came to 10300 nM.
On the same count and under the same terms, with `Cn1c(=O)c2[nH]cnc2n(C)c1=O` [theophylline] the figure was 20300 nM.
